Screening data: PubChem BioAssay, several laboratories
Hits are enriched below; roughly 0.91% of the tested compounds scored in any of these assays.
Statin myotox sup: suppression of simvastatin myotoxicity; actives 0.78% (n = 330,000); rescue of ATP level, % at 7.49 µM; C2C12 myotubes + simvastatin, ATP luminescence, 48 h; scaled: DMSO 0, geranylgeraniol control 100;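 active means mean ATP rescue above about 67%, or every replicate alone reaching that limit, limit read from the data, passing the limit was not always enough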;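 further: myotubes were challenged with 10 µM simvastatin during compound exposure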
hiPSC survival: hiPSC single-cell survival enhancement | ATPlite luminescence; 100% = ROCK inhibitor wells, 0% = DMSO | survival enhancement, % at 20 µM | actives 0.044% (n = 360,000); in the data active means survival enhancement above about 18%;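 further: cells exposed to compounds for 16 hours before the ATP read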
Yeast UUG start: alters start codon recognition fidelity in yeast; S. cerevisiae UUG-firefly luciferase reporter, luminescence/redox ratio; activity score, % at 18.7 µM; actives 0.13% (n = 350,000); AID 602363;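 active = replicate mean at a twofold rise or more, about +100% in these data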;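 also: firefly luciferase made from a UUG start codon reports start codon fidelity; reporter light over untreated wells divided by growth signal over untreated wells; some hits fall short of that in this replicate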
FN deposition inh: fibronectin deposition inhibition | AH1F fibroblasts, Alexa488-fibronectin deposition fluorescence, overnight | inhibition, % at 12.6 µM | actives 0.086% (n = 350,000) | AID 743247;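 active means mean inhibition across replicates of 30% or more, regardless of how many single replicates reach that level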
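Measured by – fluorescence 485/525 nm · System – AH1F fibroblast monolayer, labelled fibronectin deposition · Amount – 10000 cells per well · Buffer or medium – serum-reduced DMEM (2% serum) · Doses – single dose, pinned · Also added – fluorescent fibronectin at 24 nM final · Schedule – 1 h cell attachment, overnight exposure to compound and label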
PGC1a acetyl inh: modulators of PGC1a acetylation; actives 0.17% (n = 350,000); AID 651687; U2OS PGC1a acetylation, AlphaScreen anti-acetyl-lysine; with virally co-expressed GCN5 acetyltransferase; inhibition, % at 15.6 µM;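 active means every replicate shows inhibition of at least 40%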
Of the large screens only hits and unclear results are named; the others gave an inactive call.

COc1cccc(-c2nnc(N(C)C(=O)C3CCOC3)s2)c1 (stereo unspecified)	Statin myotox sup 97
Cc1nnc(N(C)C(=O)c2cccnc2)s1	Statin myotox sup 87
COc1cccc(C(=O)N(C)c2nnc(-c3ccncc3)s2)c1	Statin myotox sup 82 (no result: Yeast UUG start, FN deposition inh)
OC[C@@H]1[C@@H](c2ccccc2)C2(CN(Cc3ccc4c(c3)OCO4)C2)N1Cc1ccccc1	none (no result: Statin myotox sup, hiPSC survival, Yeast UUG start)
CC(C)(C)c1[nH]nc2c1C(c1ccoc1)C(C#N)=C(N)O2 (stereo unspecified)	Statin myotox sup 92 (no result: FN deposition inh)
CC(C)(C)c1[nH]nc2c1C(c1ccncc1)C(C#N)=C(N)O2 (stereo unspecified)	none (no result: Statin myotox sup, FN deposition inh)
Cc1cccc(-n2c(=O)cc(N3CCN(c4ccc(F)cc4)CC3)[nH]c2=O)c1	PGC1a acetyl inh 55
Cc1nn(C)c(C)c1S(=O)(=O)NCc1cccs1	Statin myotox sup 82 (no result: FN deposition inh)
CC1(Cc2ccc(Cl)cc2)C(=O)Nc2ccc(-c3cccnc3)cc21 (stereo unspecified)	Statin myotox sup 116, PGC1a acetyl inh 46
[N-]=[N+]=CC(=O)c1ccnc(C(=O)C=[N+]=[N-])c1	Statin myotox sup 94 (no result: FN deposition inh)
O=C(O)c1ccnc(Cl)c1	none
C[C@@H]1CN([C@@H](C)CO)C(=O)CCCn2cc(nn2)CO[C@H]1CN(C)S(=O)(=O)c1ccc(F)cc1	none (no result: hiPSC survival)
CC1=C[C@@H]2[C@H]3C(=O)N(Cc4ccccc4)C(=O)[C@H]3[C@@H]1[C@@H]1O[C@@]3(C(=O)N(C)c4ccccc43)C3=C(CCCC3=O)N21	none (no result: Statin myotox sup, hiPSC survival, Yeast UUG start, PGC1a acetyl inh)
Cn1c(=O)c2c(ncn2CC(=O)OCC(=O)NC2CCCc3ccccc32)n(C)c1=O (stereo unspecified)	Statin myotox sup 88
CCOC(=O)N1CCN(C(=O)CN(Cc2ccccc2)S(=O)(=O)c2ccc(OC)c(C)c2)CC1	none (no result: Statin myotox sup, FN deposition inh)
CCOC(=O)N1CCN(C(=O)CN(Cc2ccccc2)S(=O)(=O)c2ccc(OC)c(Cl)c2)CC1	Statin myotox sup 123
COCCCNC(=S)Nc1ccc(OC(F)F)cc1C	none (no result: PGC1a acetyl inh)
COCCCNC(=S)Nc1cc(C)c(C)cc1C	PGC1a acetyl inh 75 (no result: Yeast UUG start)
CC1(C)CC(=O)C=C(NCc2ccco2)C1	PGC1a acetyl inh 40 (no result: Statin myotox sup, Yeast UUG start, FN deposition inh)
O=C1C=C(NCc2ccco2)CCC1	none (no result: FN deposition inh)
COc1ccc(COn2c(=O)c(C)[n+]([O-])c3ccccc32)cc1OC	Statin myotox sup 106 (no result: FN deposition inh)
Cc1c(=O)n(OCc2ccccc2)c2ccccc2[n+]1[O-]	none (no result: FN deposition inh)
COc1ccc(/C=C2\CN(Cc3ccccc3)C/C(=C\c3ccc(OC)c(O)c3)C2=O)cc1O	Statin myotox sup 99 (no result: PGC1a acetyl inh)
C[C@H](CO)N1C[C@H](C)[C@H](CN(C)C(=O)Nc2ccccc2)Oc2ccc(NC(=O)c3ccncc3)cc2C1=O	none (no result: hiPSC survival, FN deposition inh)
CCC(=O)/C=C1/Sc2ccccc2N1CC	Statin myotox sup 112 (no result: FN deposition inh)
O=C(O)c1ccc(N/N=C/c2ccc(-c3ccc(Br)cc3)o2)cc1	Statin myotox sup 72 (no result: PGC1a acetyl inh)
Cc1ccc(/C=N/Nc2ccc(C(=O)O)cc2)o1	none (no result: Statin myotox sup, Yeast UUG start)
COCc1cc(=O)[nH]c(SCC(=O)Nc2ccccc2)n1	Statin myotox sup 102 (no result: FN deposition inh)
Nc1nc(SCC(=O)Nc2ccc(Cl)cc2)[nH]c(=O)c1-c1ccccc1	Statin myotox sup 122
CCCc1cc(=O)[nH]c(SCC(=O)Nc2ccc(OCc3ccccc3)cc2)n1	none
CCCc1cc(=O)[nH]c(SCC(=O)Nc2cccc3ccccc23)n1	none (no result: PGC1a acetyl inh)
CCCc1cc(=O)[nH]c(SCC(=O)Nc2ccccc2C#N)n1	Statin myotox sup 98 (no result: FN deposition inh)
C[C@@H]1CN([C@H](C)CO)C(=O)Cc2cc(NC(=O)NC3CCCCC3)ccc2O[C@H]1CN(C)CC1CCCCC1	none (no result: hiPSC survival, FN deposition inh)
Nc1ncnc2c1ncn2[C@@H]1O[C@H](C(=O)N[C@@H](CCc2ccccc2)C(=O)N2CCN(C(=O)N3CCOCC3)CC2)[C@@H](O)[C@H]1O	none (no result: Statin myotox sup, hiPSC survival, Yeast UUG start, PGC1a acetyl inh)
Cc1ccc(CNc2nc(N)c([N+](=O)[O-])c(NCc3ccccc3)n2)cc1	none (no result: Statin myotox sup, PGC1a acetyl inh)
Cc1ccc(CNc2nc(N)c([N+](=O)[O-])c(Nc3ccc(F)cc3)n2)cc1	Statin myotox sup 123
CCOc1ccc(Nc2nc(NCc3ccco3)nc(N)c2[N+](=O)[O-])cc1	PGC1a acetyl inh 72 (no result: Yeast UUG start)
COc1ccc(S(=O)(=O)Nc2ccc3c(c2)C(=O)N([C@H](C)CO)C[C@H](C)[C@H](CN(C)C(=O)Nc2ccccc2)O3)cc1	none (no result: hiPSC survival, FN deposition inh)
C=CCN=C(NC#N)SCC(=O)c1cccc(OC)c1	Statin myotox sup 112 (no result: Yeast UUG start, FN deposition inh)
C=CCN=C(NC#N)SCc1ccccc1	none (no result: FN deposition inh)
CCCNC(=O)N1[C@@H](CO)[C@@H]2c3ccccc3N(C)C[C@@H]21	none (no result: hiPSC survival, FN deposition inh)
O=C(NCCS(=O)(=O)N1CCN(c2ccc(F)cc2)CC1)c1ccc(Br)o1	FN deposition inh 34
COCC(=O)N(C)C[C@@H]1Oc2ncc(C3=CCCCC3)cc2C(=O)N([C@H](C)CO)C[C@@H]1C	none (no result: hiPSC survival, FN deposition inh)
COc1ccc2c3c(n(C)c2c1)[C@H](CO)N(Cc1ccncc1)CC31CCN(C(=O)NC(C)C)CC1	none (no result: Statin myotox sup, hiPSC survival, Yeast UUG start, FN deposition inh)
COC(=O)C1=C(O)/C(=C/c2ccc(OCC(=O)Nc3ccc(OC)cc3)cc2)N=C1C	none
COC(=O)C1=C(O)/C(=C\c2ccc(OCC(=O)Nc3ccccc3)cc2)N=C1C	Statin myotox sup 104
CS(=O)(=O)c1ccc(C(=O)OCC(=O)NC23CC4CC(CC(C4)C2)C3)cc1[N+](=O)[O-]	none (no result: Yeast UUG start)
CC(OC(=O)c1ccc(S(C)(=O)=O)c([N+](=O)[O-])c1)C(=O)NC1C2CC3CC(C2)CC1C3 (stereo unspecified)	hiPSC survival 24 (no result: FN deposition inh, PGC1a acetyl inh)
CCC(OC(=O)c1ccc(S(C)(=O)=O)c([N+](=O)[O-])c1)C(=O)NC1C2CC3CC(C2)CC1C3 (stereo unspecified)	hiPSC survival 30 (no result: FN deposition inh, PGC1a acetyl inh)
CN(C)CC#Cc1ccc([C@@H]2[C@@H](CO)N3CCCCN(S(=O)(=O)c4ccccc4F)C[C@H]23)cc1	none (no result: Statin myotox sup, hiPSC survival, FN deposition inh)
Cc1ccc(C(=O)NC(=S)Nc2ccccc2C(F)(F)F)cc1C	Statin myotox sup 93 (no result: FN deposition inh)
C/C=C/c1ccc([C@@H]2[C@H](CO)N(CC3CCOCC3)C23CN(C(=O)COC)C3)cc1	none (no result: Statin myotox sup, hiPSC survival, Yeast UUG start, PGC1a acetyl inh)
COC(=O)C1(C(=O)OC)NOC2C(=O)N(c3ccc(Cl)cc3Cl)C(=O)C21 (stereo unspecified)	Statin myotox sup 134
COC(=O)C1(C(=O)OC)NOC2C(=O)N(N(C)c3ncc(C(F)(F)F)cc3Cl)C(=O)C21 (stereo unspecified)	none (no result: Yeast UUG start)
O=C(C[C@H]1CC[C@H]2[C@@H](COC[C@@H](O)CN2Cc2ccc(F)cc2)O1)NCc1ccccc1Cl	none (no result: hiPSC survival)
CCOC(=O)c1[nH]c2ccc(OC)cc2c1NC(=S)N1CCN(C(=O)OCC)CC1	none (no result: Yeast UUG start)
CCOC(=O)Nc1c(C(=O)OC)[nH]c2cc(OC)ccc12	Statin myotox sup 107 (no result: FN deposition inh)
CCOC(=O)c1[nH]c2ccc(OC)cc2c1NC(=O)CCN1CCCC(C)C1 (stereo unspecified)	Statin myotox sup 145 (no result: FN deposition inh)
CCOC(=O)c1[nH]c2ccc(Br)cc2c1NC(=O)CCN1CCOCC1	none (no result: Statin myotox sup)
CCOC(=O)c1[nH]c2ccc(Br)cc2c1NC(=O)CCN1CCN(C(=O)OCC)CC1	Statin myotox sup 104
